Source: patent publication US20240228512A1, “ACYCLIC OXAZEPINE COMPOUNDS COMPRISING A 6-AZA MOIETY AND USES THEREOF” (Genentech, Inc., priority 2022, published 2024)

Experiments:
Type in all cases: cell-based
[1] = tested on: HPAC cells; assay: HPAC 3D proliferation assay (CellTiter-Glo); settings: 3D culture, 7 days, read-out: HPAC CTG IC50
Experimental: (§1) SW620 and HPAC 3D proliferation assays.
(§2) Compound potencies were assessed in proliferation assays conducted with SW620 and HPAC cell lines grown in 3D cultures. Cells were seeded into 96- or 384-well ultra-low attachment plates at 3000 or 1000 cells/well, respectively, in culture medium (RPMI-1640, 10% FBS, 2 mM L-glutamine). The plated cells were centrifuged briefly, allowed to rest for 30 minutes under ambient conditions, and cultured overnight at 37° C./5% CO2 to initiate the formation of spheroids. Compound dilutions were prepared across a range of concentrations in DMSO and added to the appropriate wells of the assay plates with a 333-fold dilution into the culture medium. The plates were further incubated for 7 days. The quantity of viable cells was assessed using CellTiter-Glo 3D Cell Viability Assay (Promega). The detection reagent penetrates the spheroids and lyses the cells. The released ATP that was detected with luciferase and a luciferase substrate to generate a luminescent readout. […] The data points were fit to a 4-parameter logistic equation to determine IC50 values.

[2] = tested on: H1975 cells; assay: H1975 CTG proliferation assay
[3] = tested on: SW620 cells; assay: SW620 3D proliferation assay (CellTiter-Glo); settings: SW620, 3D culture, 7 days, read-out: SW620 CTG IC50
Experimental: as §1, §2

[4] = tested on: SW620 PERK; assay: SW620 PERK assay

IC50 [2]: 759 nM
IC50 [3]: 62.4 nM
IC50 [4]: 59.3 nM
SMILES: Cc1c(F)c(N)c(F)c(-c2nc3c4c(nc(OC[C@@H]5CCCN5C)nc4c2F)N([C@@H](C)c2cccnc2N)CCO3)c1C(F)(F)F [compound 625]
IC50 [1]: 451 nM
